Experimental findings from patent US20240083839A1, “COMPOSITIONS AND METHODS FOR TREATING NEURODEGENERATIVE DISEASES AND DISORDERS” (The Regents of the University of California, priority 2020, published 2024) are described below.

The structures appear in SMILES notation.

This test deals with E4-AD mice. Put plainly: Oral treatment of ApoE4-expressing AD model mice (NOR, brain SirT1). The class given is in vivo, mouse. To be noted: 56 days (A03 40 mg/kg/day). On the procedure:
Prompted by the emerging importance of the associations between ApoE4 and the expression/protein levels of SirT1, high-throughput screening (HTS) of the UCLA compound library was performed using AlphaLISA to detect SirT1 levels in murine neuroblastoma cells stably transfected with ApoE4 (E4-N2a) to identify SirT1 enhancers. […] A03 was also found to be efficacious in vivo, eliciting cognitive improvement and enhancing SirT1 in a murine ApoE4-expressing AD model. In the in vivo study, mice were treated orally at 40 mkd (20 mg/kg BID) for 56 days and underwent assessment of cognition in the Novel Object Recognition (NOR) testing paradigm. […] The performance of A03-treated E4-AD mice (FIG. 5A) improved to level of non-transgenic vehicle-treated mice.

For the compound `CC(N)C(=O)OC(C)(C)Cc1ccc(Cl)cc1` (centres unmarked) [A03, alaproclate], the “Novel Object Recognition discrimination index / cognition” value is on record as “significantly greater discrimination index” and the SirT1 in hippocampi entry was “significantly higher”.
